{
  "source": "patent US20060205037A1",
  "about": "“Modified transferrin fusion proteins” (priority 2003, published 2006)",
  "target": "GLP-1 receptor (CHO/GLP-1R cells, stably transfected CHO cells)",
  "assay": "cell-based or functional assay",
  "data": [
    {"substance": "exendin-4 (Bachem) (from UniProt P26349) (peptide)", "values": [
      {"measurement": "intracellular cAMP in CHO/GLP-1R cells, EC50", "value": 0.05, "unit": "nM"}
    ]}
  ]
}
